Earlier results in US8546322B2, “Inhibitors of intracellular urokinase plasminogen activator and methods of use thereof” (The Regents of the University of California, priority 2007, dated 2013).

Test system: tumor cells
Settings: cited from earlier work

Compound: N=C(N)NC(=O)c1nc(Cl)c(N)nc1N [Amiloride, 3,5-diamino-6-chloro-N-(diaminomethylene)pyrazinecarboxamide]
- concentrations required for producing cytotoxic effects: ≥ 500 µM
